Results on eleven compounds are retold here after PubChem BioAssay AID1423 (NMMLSC, 2008).

Amino acid sequences for entries named in this document (tags omitted).
UniProt P09471, whole entry: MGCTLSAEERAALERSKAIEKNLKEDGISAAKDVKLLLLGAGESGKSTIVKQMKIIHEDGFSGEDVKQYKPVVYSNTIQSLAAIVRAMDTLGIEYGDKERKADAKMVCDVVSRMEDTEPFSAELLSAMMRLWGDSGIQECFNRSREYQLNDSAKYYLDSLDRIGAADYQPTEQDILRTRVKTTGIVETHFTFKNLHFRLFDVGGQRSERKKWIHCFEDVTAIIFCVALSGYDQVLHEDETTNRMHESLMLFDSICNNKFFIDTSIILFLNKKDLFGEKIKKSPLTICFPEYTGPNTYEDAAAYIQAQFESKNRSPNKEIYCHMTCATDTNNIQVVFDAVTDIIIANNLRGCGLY

The structures appear in SMILES notation. Only a part is listed here, and it is no random draw. Some tests of the compounds listed are not included; inactive here does not mean inactive elsewhere. Active and inactive are the calls of the source. Rule as the data show it: active = response below about 60% or above about 140%; inactive = in between.

This assay deals with Guanine nucleotide-binding protein G(o) subunit alpha (Homo sapiens) (UniProt P09471). The assay is described as follows: compounds changing RGS8 association with Galphao – biochemical, multiplexed bead flow cytometry, primary screen (AID 1423).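 Also: Galphao activated as the GDP aluminium fluoride complex binding bead-coupled RGS8.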 As to conditions: at 10 µM, actives lie on both sides.
For the compound `O=C(NCC1(N2CCCCC2)CCCCC1)c1cc([N+](=O)[O-])ccc1Cl`, the response (percent of control binding) was inactive: 102%.
Consider `CCN(CC)CC(C)C(C)OC(=O)C(O)(c1ccccc1)c1ccccc1` (stereo unspecified), for which the response (percent of control binding) is inactive: 96.7%.
For the compound `CC(C)N1C(=O)CC2(CCN(CCOC(=O)C(O)(c3ccccc3)c3ccccc3)CC2)C1=O`, the response (percent of control binding) was inactive: 99.6%.
Regarding `CN(C)C1CCCC1OC(=O)C(O)(c1ccccc1)c1ccccc1` (stereo unspecified), the response (percent of control binding) was inactive: 101%.
To `Cc1ccccc1C(=O)NCC1(N2CCCCC2)CCCCC1` belongs inactive: 105%; to `C=CCN1CCN(CCOC(=O)C(O)(c2ccccc2)c2ccccc2)CC1`, inactive: 101%.
To `CCN1CCCC(OC(=O)C2(O)c3ccccc3C=Cc3ccccc32)C1` (stereo unspecified) belongs inactive: 118%.
As to `COc1cccc(C(=O)NCC2(N3CCCCC3)CCCCC2)c1`, the response (percent of control binding) was inactive: 98.1%.
Turning to `O=C(OC1CN2CCC1CC2)C(CO)(c1ccccc1)c1ccccc1` (stereo unspecified), the response (percent of control binding) was inactive: 101%.
To `COc1ccc(Br)c(C(=O)NCC2(N3CCCCC3)CCCCC2)c1` belongs inactive: 100%; to `CN(C)c1cccc(C(=O)NCC2(N(C)C)CCCCC2)c1`, inactive: 99.9%.
